Experiment: Solubility by ultracentrifugation (GLP-1 variants)
Format: physicochemical
Experimental: Relative solubility was measured using a recently developed PEG precipitation assay. For all PYY variants the standard assay worked well, and no changes had to be implemented (Fig. 2a). […] Moreover, to ensure that the results stemming from the AMS assay are consistent and reliable, we performed the 18 A experiments twice independently on different days. The results confirmed that they are indeed replicable, and we were therefore confident to use them for the validation of our approach (Supplementary Fig. 3). […] Even at final concentrations of 0.33 mg/mL (instead of 1 mg/mL) most variants remained insoluble. We used ultracentrifugation to determine the relative solubilities of the GLP-1 variants (Table 3). To confirm the reliability of this method we replicated the results on a different day with the same stock solutions (Supplementary Fig. 4).
Aliquots of 1 mg were prepared from the purified and lyophilised stocks. […] Briefly, a precipitant is titrated in increasing concentration to a fixed concentration of protein to induce precipitation of the protein. The samples are incubated for 48 h at 4° after mixing. The samples are centrifuged and the remaining protein concentration is measured in the supernatant using a plate reader. PYY and 18 A variants were dissolved in 10 mM citrate 10 mM phosphate buffer at pH 7 for a final concentration of 3 mg/mL. The assay was run with 50% 6000 PEG for PYY and with 3.8 M AMS for 18 A. To improve throughput, a multichannel robot was employed to measure several peptides at once with the workflow being kept the same as described previously. […] 120 µL of each sample were centrifuged using an OptimaTLX Ultracentrifuge and spinning for 30 min at 500,000 g at 4 °C. The supernatant was removed, and the peptide concentration was measured using a NanoDrop.

- First Run: 2
- Second Run: 2
- Ultracentrifugation: 2
- solubility (pH 7, Run 1 solubility (peptide concentration in supernatant)): > 2000 µg/mL
- solubility (pH 7, Run 2 solubility (peptide concentration in supernatant)): > 2000 µg/mL
SMILES: CC(C)C[C@H](NC(=O)[C@H](Cc1ccc(O)cc1)NC(=O)[C@H](CO)NC(=O)[C@H](CO)NC(=O)[C@@H](NC(=O)[C@H](CC(=O)O)NC(=O)[C@H](CO)NC(=O)[C@@H](NC(=O)[C@H](Cc1ccccc1)NC(=O)[C@@H](NC(=O)C(C)(C)NC(=O)[C@H](CCC(=O)O)NC(=O)[C@H](C)NC(=O)[C@@H](N)Cc1c[nH]cn1)[C@@H](C)O)[C@@H](C)O)C(C)C)C(=O)N[C@@H](CCC(=O)O)C(=O)NCC(=O)N[C@@H](CCC(N)=O)C(=O)N[C@@H](C)C(=O)N[C@@H](C)C(=O)N[C@@H](CCCCN)C(=O)N[C@@H](CCC(=O)O)C(=O)N[C@@H](Cc1ccccc1)C(=O)N[C@@H](CCCNC(N)=O)C(=O)N[C@@H](C)C(=O)N[C@@H](Cc1c[nH]c2ccccc12)C(=O)N[C@@H](CC(C)C)C(=O)N[C@H](C(=O)N[C@@H](CCCCN)C(=O)NCC(=O)N[C@@H](CCCNC(=N)N)C(N)=O)C(C)C [Compound 8]
